Read-outs that look alike come from different tables or passages of the source.
Assays:
UNC-49B/C heteromer = UNC-49B/C heteromer (Caenorhabditis elegans, UniProt G5ECD3+G5EE10); format: cell-based; conditions: read-out: PS IC50, at EC50 GABA
Procedure: (§1) Electrophysiology: Plasmids containing wild-type and mutagenized GABAA receptor subunits were linearized and transcribed in vitro using T3 RNA polymerase (mMessage mMachine T3 kit, Ambion, Austin Tex.). UNC-49B mRNA was injected into Xenopus laevis oocytes at 0.5 μg/μl either alone, or in a mixture with 0.5 μg/μl UNC-49C. […] The injection volume ranged between 27.6 nl to 50.6 nl. […] Cells were voltage clamped at −60 mV. All recordings were performed at room temperature.

Chains of the proteins cited; added tags and fusions are not shown.
UniProt G5EE10, entry or part of it: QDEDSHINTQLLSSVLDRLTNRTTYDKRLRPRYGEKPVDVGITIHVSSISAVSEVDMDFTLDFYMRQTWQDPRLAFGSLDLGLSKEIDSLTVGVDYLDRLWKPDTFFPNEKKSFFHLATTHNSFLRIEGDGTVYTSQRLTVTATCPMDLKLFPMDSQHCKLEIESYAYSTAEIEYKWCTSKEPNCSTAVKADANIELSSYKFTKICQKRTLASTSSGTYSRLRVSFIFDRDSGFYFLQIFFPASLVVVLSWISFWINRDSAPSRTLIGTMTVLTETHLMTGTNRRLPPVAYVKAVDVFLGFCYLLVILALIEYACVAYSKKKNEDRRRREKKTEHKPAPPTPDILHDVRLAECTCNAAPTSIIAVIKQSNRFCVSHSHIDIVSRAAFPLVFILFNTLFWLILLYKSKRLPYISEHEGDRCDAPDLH

QF-R = QF-R (Caenorhabditis elegans, UniProt G5ECD3, N259Q/N305R/V261F); format: cell-based, C. elegans; conditions: read-out: PS IC50, at EC50 GABA
Procedure: as §1
The conserved residues were tested in the UNC-49C M1 domain in a similar way. […] To test the importance of these conserved residues, they were substituted into an UNC-49B subunit with the linker mutation N305R to create the ‘QF-R’ subunit (FIG. 3c).

Y(M258L/S264A) = molecular target: T1, Y(M258L/S264A) (Caenorhabditis elegans, UniProt G5ECD3, I265S/I267V/I270L/M258L/N259Q/N305R/S264A/T269V/V261F/V273I); format: cell-based, C. elegans
T1 sequence (G5ECD3 23-506 M258L/N259Q/V261F/S264A/I265S/I267V/T269V/I270L/V273I/N305R): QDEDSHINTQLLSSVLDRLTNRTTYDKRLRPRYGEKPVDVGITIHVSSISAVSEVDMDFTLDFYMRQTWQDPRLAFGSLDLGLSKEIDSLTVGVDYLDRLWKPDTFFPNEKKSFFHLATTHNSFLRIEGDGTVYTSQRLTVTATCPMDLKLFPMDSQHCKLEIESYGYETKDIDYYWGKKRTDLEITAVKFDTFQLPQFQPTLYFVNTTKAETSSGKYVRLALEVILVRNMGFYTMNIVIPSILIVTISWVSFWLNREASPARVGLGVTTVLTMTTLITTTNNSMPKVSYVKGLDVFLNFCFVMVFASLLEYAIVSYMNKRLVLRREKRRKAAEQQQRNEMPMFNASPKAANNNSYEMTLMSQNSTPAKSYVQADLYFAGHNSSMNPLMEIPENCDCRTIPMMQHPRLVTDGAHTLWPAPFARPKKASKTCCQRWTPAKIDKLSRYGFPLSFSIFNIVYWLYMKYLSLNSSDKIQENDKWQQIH
Procedure: as §1
(§2) Error bars in the figures are standard error of the mean. All drugs were obtained from Sigma (St. Louis). […] Picrotoxin was prepared as a 100 mM stock in DMSO.
(§3) Important residues in the X segment were tested by substituting UNC-49C residues into the Y chimera. […] These divergent X segment residues were tested by mutating them from UNC-49B to UNC-49C amino acids in the Y chimera background.

Y(M258L) = molecular target: T2, Y(M258L) (Caenorhabditis elegans, UniProt G5ECD3, I265S/I267V/I270L/M258L/N259Q/N305R/T269V/V261F/V273I); format: cell-based, C. elegans
T2 sequence (G5ECD3 23-506 M258L/N259Q/V261F/I265S/I267V/T269V/I270L/V273I/N305R): T1 sequence (G5ECD3 23-506 M258L/N259Q/V261F/S264A/I265S/I267V/T269V/I270L/V273I/N305R)
Procedure: as §1, §2, §3

Y(T257F/S264A) = Y(T257F/S264A) (Caenorhabditis elegans, UniProt G5ECD3, I265S/I267V/I270L/N259Q/N305R/S264A/T257F/T269V/V261F/V273I); format: cell-based, C. elegans; conditions: read-out: PS IC50, at EC50 GABA
Procedure: as §1, §3

Y(T257F) = Y(T257F) (Caenorhabditis elegans, UniProt G5ECD3, I265S/I267V/I270L/N259Q/N305R/T257F/T269V/V261F/V273I); format: cell-based, C. elegans; conditions: read-out: PS IC50, at EC50 GABA
Procedure: as §1, §3

Y(T257F/M258L/S264A) = Y(T257F/M258L/S264A) (Caenorhabditis elegans, UniProt G5ECD3, I265S/I267V/I270L/M258L/N259Q/N305R/S264A/T257F/T269V/V261F/V273I); format: cell-based, C. elegans; conditions: read-out: PS IC50, at EC50 GABA
Procedure: as §1, §3

Y(S264A) = Y(S264A) (Caenorhabditis elegans, UniProt G5ECD3, I265S/I267V/I270L/N259Q/N305R/S264A/T269V/V261F/V273I); format: cell-based, C. elegans; conditions: read-out: PS IC50, at EC50 GABA
Procedure: as §1, §3

Y(T257F/M258L) = Y(T257F/M258L) (Caenorhabditis elegans, UniProt G5ECD3, I265S/I267V/I270L/M258L/N259Q/N305R/T257F/T269V/V261F/V273I); format: cell-based, C. elegans; conditions: read-out: PS IC50, at EC50 GABA
Procedure: as §1, §3

Y(I262F/S264A) = Y(I262F/S264A) (Caenorhabditis elegans, UniProt G5ECD3, I262F/I265S/I267V/I270L/N259Q/N305R/S264A/T269V/V261F/V273I); format: cell-based, C. elegans; conditions: read-out: PS IC50, at EC50 GABA
Procedure: as §1, §3

XZ chimera = XZ chimera (Caenorhabditis elegans, UniProt G5ECD3, A281S/E280D/I262F/L277I/M258L/N259Q/N305R/S264A/S282A/T257F/V261F); format: cell-based, C. elegans; conditions: read-out: PS IC50, at EC50 GABA
Procedure: as §1

X(I265S, Q259N) = X(I265S, Q259N) (Caenorhabditis elegans, UniProt G5ECD3, I262F/I265S/M258L/N305R/S264A/T257F/V261F); format: cell-based, C. elegans; conditions: read-out: PS IC50, at EC50 GABA
Procedure: as §1

Y chimera = Y chimera (Caenorhabditis elegans, UniProt G5ECD3, I265S/I267V/I270L/N259Q/N305R/T269V/V261F/V273I); format: cell-based, C. elegans; conditions: read-out: PS IC50, at EC50 GABA
Procedure: as §1

X(I265S) = X(I265S) (Caenorhabditis elegans, UniProt G5ECD3, I262F/I265S/M258L/N259Q/N305R/S264A/T257F/V261F); format: cell-based, C. elegans; conditions: read-out: PS IC50, at EC50 GABA
Procedure: as §1

N305R = N305R (Caenorhabditis elegans, UniProt G5ECD3, N305R); format: cell-based, C. elegans; conditions: read-out: PS IC50, at EC50 GABA
Procedure: as §1

X(T269V) = X(T269V) (Caenorhabditis elegans, UniProt G5ECD3, I262F/M258L/N259Q/N305R/S264A/T257F/T269V/V261F); format: cell-based, C. elegans; conditions: read-out: PS IC50, at EC50 GABA
Procedure: as §1

Z chimera = Z chimera (Caenorhabditis elegans, UniProt G5ECD3, A281S/E280D/L277I/N259Q/N305R/S282A/V261F); format: cell-based, C. elegans; conditions: read-out: PS IC50, at EC50 GABA
Procedure: as §1

X chimera = X chimera (Caenorhabditis elegans, UniProt G5ECD3, I262F/M258L/N259Q/N305R/S264A/T257F/V261F); format: cell-based, C. elegans; conditions: read-out: PS IC50, at EC50 GABA
Procedure: as §1

X(I267V) = X(I267V) (Caenorhabditis elegans, UniProt G5ECD3, I262F/I267V/M258L/N259Q/N305R/S264A/T257F/V261F); format: cell-based, C. elegans; conditions: at EC50 GABA, read-out: PS IC50
Procedure: as §1

UNC-49B homomer = UNC-49B homomer (Caenorhabditis elegans, UniProt G5ECD3); format: cell-based, C. elegans; conditions: read-out: PS IC50, at EC50 GABA, estimated by extrapolating the PS dose-response curve
Procedure: as §1

X(I270L) = X(I270L) (Caenorhabditis elegans, UniProt G5ECD3, I262F/I270L/M258L/N259Q/N305R/S264A/T257F/V261F); format: cell-based, C. elegans; conditions: read-out: PS IC50, at EC50 GABA
Procedure: as §1

X(V273I) = X(V273I) (Caenorhabditis elegans, UniProt G5ECD3, I262F/M258L/N259Q/N305R/S264A/T257F/V261F/V273I); format: cell-based, C. elegans; conditions: read-out: PS IC50, at EC50 GABA
Procedure: as §1

XY chimera = XY chimera (Caenorhabditis elegans, UniProt G5ECD3, I262F/I265S/I267V/I270L/M258L/N259Q/N305R/S264A/T257F/T269V/V261F/V273I); format: cell-based, C. elegans; conditions: read-out: PS IC50, at EC50 GABA
Procedure: as §1

UNC-49B-PS7 = UNC-49B-PS7 (Caenorhabditis elegans, UniProt G5ECD3, I262F/I265S/M258L/N259Q/N305R/S264A/T257F); format: cell-based, C. elegans; conditions: read-out: PS IC50, at EC50 GABA
Procedure: as §1

linker chimera = linker chimera (Caenorhabditis elegans, UniProt G5ECD3, N305R, form not given); format: cell-based, C. elegans; conditions: read-out: PS IC50, at EC50 GABA
Procedure: as §1

YZ chimera = YZ chimera (Caenorhabditis elegans, UniProt G5ECD3, A281S/E280D/I265S/I267V/I270L/L277I/N259Q/N305R/S282A/T269V/V261F/V273I); format: cell-based, C. elegans; conditions: read-out: PS IC50, at EC50 GABA
Procedure: as §1

pregnenolone sulfate [PS]
IC50 (UNC-49B/C heteromer): 2.3 µM
IC50 (QF-R): 24.7 ± 4.7 µM
EC50 (Y(M258L/S264A); read-out: EC50, half maximal enhancing concentration of PS (biphasic fit), M258L/S264A mutant, median of 1000 bootstrap trials): 2.4 µM
IC50 (Y(M258L/S264A); read-out: IC50, half maximal inhibitory concentration of PS (biphasic fit), M258L/S264A mutant, median of 1000 bootstrap trials): 52.6 µM
IC50 (Y(M258L/S264A); read-out: PS IC50, Y(M258L/S264A), at EC50 GABA, biphasic): 100 µM
EC50 (Y(M258L); read-out: EC50, half maximal enhancing concentration of PS (biphasic fit), M258L mutant, median of 1000 bootstrap trials): 3.95 µM
IC50 (Y(M258L); read-out: IC50, half maximal inhibitory concentration of PS (biphasic fit), M258L mutant, median of 1000 bootstrap trials): 45.3 µM
IC50 (Y(M258L); read-out: PS IC50, Y(M258L), at EC50 GABA, biphasic): 100 µM
IC50 (Y(T257F/S264A)): 10.6 ± 1.9 µM
IC50 (Y(T257F)): 18.6 ± 0.9 µM
IC50 (Y(T257F/M258L/S264A)): 44.4 ± 4.8 µM
IC50 (Y(S264A)): 88.7 ± 2.9 µM
IC50 (Y(T257F/M258L)): 41.5 ± 3 µM
IC50 (Y(I262F/S264A)): 97.6 ± 1.9 µM
IC50 (XZ chimera): 14.4 ± 1.7 µM
IC50 (X(I265S, Q259N)): 7.7 ± 0.3 µM
IC50 (Y chimera): 90.8 ± 0.5 µM
IC50 (X(I265S)): 3.43 ± 0.6 µM
IC50 (N305R): 51 ± 4.5 µM
IC50 (X(T269V)): 12.4 ± 1.9 µM
IC50 (Z chimera): 9.3 ± 0.6 µM
IC50 (X chimera): 12.8 ± 0.3 µM
IC50 (X(I267V)): 17.9 ± 1.4 µM
IC50 (UNC-49B homomer): 191 µM
IC50 (X(I270L)): 11.5 ± 0.5 µM
IC50 (X(V273I)): 11.6 ± 0.5 µM
IC50 (XY chimera): 3.7 ± 0.5 µM
IC50 (UNC-49B-PS7): 3.3 ± 0.1 µM
IC50 (linker chimera): 44.9 ± 7 µM
IC50 (YZ chimera): 84.4 ± 13.7 µM
